Experimental findings from patent US20110038920A1, “WOUND HEALING COMPOSITIONS AND TREATMENTS” (priority 2008, published 2011) are described below.

In this assay the test system is OPN expression in Swiss 3T3 fibroblasts. Put plainly: Induction of OPN expression in fibroblasts by growth factors/cytokines (Western blot). The assay is classed as cell-based. Conditions: 8 h; PDGF-BB 20, EGF 100, TGFβ1 10, TGFβ3 10, IL-6 50, TNFα 10 ng/ml.

Take TNF-α: cytokine, BioSource: the “ability to upregulate OPN expression in Swiss 3T3s” value is listed as “not”.
